Here are results for 3 molecules from patent US20250223281A1, “ANTIDIABETIC COMPOUNDS AND COMPOSITIONS” (REZUBIO PHARMACEUTICALS CO., LTD, priority 2022, published 2025).

The chains behind the UniProt entries cited, without tags or fusion partners.
UniProt O14842, whole entry: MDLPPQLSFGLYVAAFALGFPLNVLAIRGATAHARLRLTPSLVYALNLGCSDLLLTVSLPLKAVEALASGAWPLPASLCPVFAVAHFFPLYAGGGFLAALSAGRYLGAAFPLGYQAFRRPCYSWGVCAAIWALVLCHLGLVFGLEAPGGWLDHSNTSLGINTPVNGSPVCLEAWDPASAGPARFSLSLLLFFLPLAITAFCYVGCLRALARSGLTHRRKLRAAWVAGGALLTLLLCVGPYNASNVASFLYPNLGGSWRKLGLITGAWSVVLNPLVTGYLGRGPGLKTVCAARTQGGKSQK

The assay addresses GPR40 (Homo sapiens, UniProt O14842). The experiment in a line: IP1 accumulation assay in HEK293 cells stably expressing GPR40. Here is the method:
IP1 accumulation assay was used to evaluate the potency of compounds. HEK293 cells stably expressing GPR40 were cultured in 5% CO2 incubator (ThermoFisher) in maintenance media (Dulbecco's modified Eagle's medium with 4.5 g/L of glucose, 10% fetal bovine serum, 100 μg/mL Hygromycin, and Penicillin (100 U/mL)/Streptomycin (100 μg/mL)) till 100% confluency. Cells were harvested freshly, spun down at 300×g for 5 min, and resuspended in pre-warmed 1× stimulant buffer from Cisbio IP-One HTRF Detection kit (Cisbio). Cell density was adjusted to 2.0×10^6 cells/mL. DMSO was used as blank control and AMG-1638 (CAS #: 1142214-62-7) as positive control. Compounds were prepared at 10 mM in DMSO and 5 nL of 3× serially diluted compounds (10 concentrations) were added to each well of the 384-LDV assay plate (Corning) by using ECHO 550 (Labcyte). Five μL of cells in suspension were transferred into each well by using Multidrop Combi Reagent Dispenser (ThermoFisher). Assay plate was then sealed and incubated at 37° C. for 2 hours. IP-d2 reagent and anti-IP1 reagent were prepared following the manual (Cisbio). Five μL of IP1-d2 and then 5 μL of anti-IP1 antibody was added to each well sequentially. Assay plate was incubated at room temperature for 60 min and then read at 665 nm/615 nm on an Envision plate reader (PerkinElmer). The ratio of values obtained at 665 nm and 615 nm was used for calculation of IP1 accumulation: % Effect=(Ratiosample−Ratioblank)/(RatioAMG-1638−Ratioblank)×100. Dose curve was fitted and EC50 of each compound was calculated by using XLFit.

`C[C@H](C(=O)O)[C@H](c1ccc2c(c1)O[C@@H](C1CCN(Cc3cc(-n4cc(CCCCCCCCC(=O)NCC[N+](C)(CCC(=O)NCCN)CCC(=O)NCCN)nn4)ccc3OC(F)(F)F)CC1)CC2)C1CC1`: the EC50 is, setting by setting: (IP1 accumulation, HEK293 cells stably expressing GPR40, 2 hours at 37° C., % effect relative to AMG-1638, table of Biological Example 1, tested form: chloride, dihydrochloride (drawing: 2HCl)) over 10000 nM; (Tables A-1a to A-7b (structure-property relationship), obtained by methods of Biological Example 1, tested form: chloride, dihydrochloride (drawing: 2HCl)) over 10000 nM.
Regarding `COc1ccc(C(=O)N(CC(C)(C)CCn2cc(COCCOCCOCCOCC(=O)NCCN(CCC(=O)NCCN)CCC(=O)NCCN)nn2)c2cccc(C)n2)c(N2CCC(COc3cc([C@@H](CC(=O)O)C4CC4)ccn3)CC2)c1`, the EC50 is, setting by setting: (IP1 accumulation, HEK293 cells stably expressing GPR40, 2 hours at 37° C., % effect relative to AMG-1638, table of Biological Example 1, tested form: TFA) 1360 nM; (Table A-8 (additional examples), obtained by methods of Biological Example 1, tested form: TFA) 1360 nM.
Regarding `COc1ccc(F)c(-c2ccc(COc3cccc([C@@H](CC(=O)O)C4CC4)c3)cc2CC(C)(C)Cn2cc(CCCCCCC(=O)NCCC[N+](C)(CC(=O)[O-])CC(=O)O)nn2)c1` (some centres unmarked), the EC50 (IP1 accumulation, HEK293 cells stably expressing GPR40, 2 hours at 37° C., % effect relative to AMG-1638, table of Biological Example 1) turned out to be 631 nM.
